Each structure is given as a SMILES string. The list shows a part of the results, in another mix than the full data. The source made the active and inactive calls.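 The calls were made as follows: active = B-score under library mean minus 3 SD, initial fluorescence not abnormally high, positive integrated signal ratio; inactive = the rest.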

Amino acid sequences for entries named in this document (tags omitted).
UniProt Q61143, whole entry: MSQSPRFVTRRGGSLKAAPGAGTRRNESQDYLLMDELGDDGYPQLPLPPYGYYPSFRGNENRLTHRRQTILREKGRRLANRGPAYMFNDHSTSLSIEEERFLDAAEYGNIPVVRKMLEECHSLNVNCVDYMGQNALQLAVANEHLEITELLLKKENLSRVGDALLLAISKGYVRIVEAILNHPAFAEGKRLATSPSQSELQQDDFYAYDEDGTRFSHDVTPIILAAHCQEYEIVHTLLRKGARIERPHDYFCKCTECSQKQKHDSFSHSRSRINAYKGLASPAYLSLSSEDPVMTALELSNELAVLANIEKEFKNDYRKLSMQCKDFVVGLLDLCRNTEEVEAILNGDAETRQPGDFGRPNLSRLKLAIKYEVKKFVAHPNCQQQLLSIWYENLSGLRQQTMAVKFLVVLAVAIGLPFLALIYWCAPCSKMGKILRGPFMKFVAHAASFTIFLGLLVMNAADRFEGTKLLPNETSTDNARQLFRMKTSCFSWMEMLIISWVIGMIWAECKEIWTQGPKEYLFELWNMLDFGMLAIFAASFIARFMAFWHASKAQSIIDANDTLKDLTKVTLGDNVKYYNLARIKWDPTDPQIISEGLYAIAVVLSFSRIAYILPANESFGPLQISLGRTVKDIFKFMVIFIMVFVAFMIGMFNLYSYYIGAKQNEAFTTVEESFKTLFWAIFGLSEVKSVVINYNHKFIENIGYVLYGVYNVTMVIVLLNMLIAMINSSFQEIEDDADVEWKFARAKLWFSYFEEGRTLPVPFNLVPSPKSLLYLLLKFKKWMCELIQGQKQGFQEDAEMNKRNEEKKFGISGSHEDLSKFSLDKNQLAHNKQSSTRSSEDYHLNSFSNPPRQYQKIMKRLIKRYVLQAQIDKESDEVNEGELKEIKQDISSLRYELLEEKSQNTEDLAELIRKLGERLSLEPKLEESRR

In this assay the target is Short transient receptor potential channel 6 (Mus musculus) (UniProt Q61143). As to the kind of experiment: mouse TRPC6 channel inhibitors, primary screen, cell-based, HEK293, membrane potential dye (AID 2553).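 As to B-score: B-score derived from integrated fluorescence ratio over the kinetic read; more negative B-score means stronger inhibition of depolarization.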 To be noted: ACh-evoked depolarization, at 10 µM; hits give low values.
Consider `O=C(NCC1(N2CCCCC2)CCCCC1)c1cccc(C(F)(F)F)c1`, for which the outcome was inactive.

Take `O=C(NCC1(N2CCOCC2)CCCCC1)c1cc(=O)[nH]c2ccccc12`: the call was inactive.

With `COc1cc(C(=O)NCC2(N3CCCCC3)CCCCC2)ccc1OC(F)F`, the result was inactive.

As for `COc1ccc(NC2CCN(C(=O)OC(C)(C)C)CC2)cc1`, the molecule was called inactive.

Consider `CN1CCN(CCOC(=O)C(O)(c2ccccc2)c2ccccc2)CC1`, for which the B-score was active: -6.29.

In the case of `O=C(NCC1(N2CCCCC2)CCCCC1)c1ccc(OC(F)F)cc1`, the molecule was called inactive.

Turning to `CCN1CCC(Nc2ccc(Cl)cc2)CC1`, the outcome was inactive.

`N#CC1(Nc2ccccc2)CCN(CCc2ccccc2)CC1`: the outcome was inactive.

Regarding `O=C(NCC1(N2CCCCC2)CCCCC1)c1cccc([N+](=O)[O-])c1`, the molecule was classed as inactive.

As to `CN1CCC(Nc2cccc(F)c2)CC1`, the call was inactive.

Consider `CCCOc1ccc(C(=O)NCC2(N(C)C)CCCCC2)cc1OC`, for which the result was inactive.

For the molecule `CC(C)c1ccc(NC2CCN(C(=O)OC(C)(C)C)CC2)cc1`, the molecule was called inactive.

Take `COc1ccc(CN(CCCl)CCCl)cc1Cl`: the outcome was inactive.

Turning to `CN(C)c1cccc(C(=O)NCC2(N3CCCCC3)CCCCC2)c1`, the result was inactive.

For the molecule `COc1cc(OC)c(C(=O)NCC2(N(C)C)CCCCC2)cc1OC`, the call was inactive.

`O=C(NCC1(N2CCCCC2)CCCCC1)c1ccc(Cl)nc1`: the molecule was classed as inactive.

Turning to `Cc1cc(C)cc(N(C(=O)c2ccccc2)C2CCN(C(=O)OC(C)(C)C)CC2)c1`, the molecule was classed as inactive.

As to `O=C(NCC1(N2CCOCC2)CCCCC1)c1cc2ccccc2o1`, the molecule was called inactive.

On to `O=C(OC1CN2CCC1CC2)C1c2ccccc2Oc2ccccc21` (centres undefined), for which the B-score is active: -12.2.

As for `N#CC1(Nc2ccccc2)CCN(Cc2ccccc2)CC1`, the molecule was classed as inactive.

Take `CCOC(=O)N1CCC(Nc2ccc(OC)cc2)CC1`: the molecule was called inactive.

With `COc1ccc(C(=O)NCC2(N3CCCCC3)CCCCC2)cc1`, the call was inactive.

`CC(C)(C)OC(=O)N1CCC(N(C(=O)c2ccccc2)c2ccc(F)cc2)CC1`: the result was inactive.

With `COc1ccc(C(=O)NCC2(N3CCCCC3)CCCCC2)c(OC)c1OC`, the result was inactive.

As to `O=C(NCC1(N2CCCCC2)CCCCC1)c1ccc(=O)[nH]c1`, the call was inactive.

Regarding `O=C(NCC1(N2CCCCC2)CCCCC1)c1cccs1`, the call was inactive.

On to `CSc1ccccc1C(=O)NCC1(N2CCCCC2)CCCCC1`, for which the molecule was called inactive.

With `COc1cc(C(=O)NCC2(N(C)C)CCCCC2)ccc1OC(F)F`, the call was inactive.

Regarding `CCOC(=O)N1CCC(Nc2cccc(C)c2)CC1`, the outcome was inactive.

Turning to `Cc1ccc(OCC(C)C)c(CN(CCCl)CCCl)c1`, the outcome was inactive.

On to `CCOc1ccc(C)cc1CN(CCCl)CCCl`, for which the call was inactive.

Turning to `O=C(NCC1(N2CCCCC2)CCCCC1)c1ccc(F)cc1`, the result was inactive.

As to `CCOC(=O)N1CCC(Nc2ccc(F)cc2)CC1`, the call was inactive.

On to `COc1ccc(NC2CCN(CCc3ccccc3)CC2)c(OC)c1`, for which the outcome was inactive.

For `CCN1CCC(Nc2cccc(F)c2)CC1`, the outcome was inactive.

Regarding `CN(C)c1ccc(C(=O)NCC2(N3CCCCC3)CCCCC2)cc1`, the outcome was inactive.

For the molecule `COc1cc(OC)cc(C(=O)NCC2(N3CCCCC3)CCCCC2)c1`, the molecule was classed as inactive.

`Cc1ccc(C(=O)NCC2(N3CCCCC3)CCCCC2)o1`: the molecule was called inactive.

In the case of `Fc1ccccc1NC1CCN(Cc2ccccc2)CC1`, the outcome was inactive.

Regarding `COc1cccc(C(=O)N(c2cc(C)cc(C)c2)C2CCN(C(=O)OC(C)(C)C)CC2)c1`, the result was inactive.

With `COc1cc(OC)cc(C(=O)NCC2(N3CCOCC3)CCCCC2)c1`, the call was inactive.

For the molecule `CCC(CO)(C(=O)OC1CN2CCC1CC2)c1ccccc1` (centres undefined), the B-score is active: -7.12.

Take `CN1CCC(Nc2ccc(Cl)cc2)CC1`: the call was inactive.

Consider `CCCOc1ccc(C)cc1CN(CCCl)CCCl`, for which the call was inactive.

Regarding `CCOc1ncccc1C(=O)NCC1(N2CCOCC2)CCCCC1`, the call was inactive.

In the case of `CN1CCC(Nc2ccc(F)c(Cl)c2)CC1`, the molecule was classed as inactive.

As to `CC(C)(C)OC(=O)N1CCC(Nc2ccccc2)CC1`, the molecule was classed as inactive.

Regarding `O=C(O)C1(Nc2ccccc2)CCN(Cc2ccccc2)CC1`, the molecule was called inactive.

With `CCCOc1ccc(C(=O)NCC2(N(C)C)CCCCC2)cc1`, the molecule was called inactive.

For `CCOC(=O)N1CCC(Nc2ccc(C)cc2)CC1`, the outcome was inactive.

With `N/C(=N\O)c1c(N)no[n+]1[O-]`, the molecule was classed as inactive.

`O=C(OC1CN2CCC1CC2)C1c2ccccc2C=Cc2ccccc21` (centres undefined): the B-score is active: -7.24.

`CCc1cc(C(=O)NCC2(N3CCCCC3)CCCCC2)sc1C`: the result was inactive.

Regarding `COc1ccc(C(=O)NCC2(N3CCOCC3)CCCCC2)cc1OC`, the call was inactive.

Consider `CN(C)C1(CNC(=O)c2cccc(C#N)c2)CCCCC1`, for which the outcome was inactive.

With `c1ccc(CN2CCC(Nc3ccccc3)CC2)cc1`, the molecule was classed as inactive.

Take `CCCN1CCC(Nc2cc(OC)cc(OC)c2)CC1`: the molecule was called inactive.

For `N#Cc1ccc(C(=O)NCC2(N3CCCCC3)CCCCC2)cc1`, the molecule was classed as inactive.

`CC(C)(C)OC(=O)N1CCC(N(C(=O)c2ccccc2)c2ccc(Cl)cc2)CC1`: the molecule was called inactive.

The values above are taken from PubChem BioAssay AID2553 (Johns Hopkins Ion Channel Center, 2010).
